Measurements reported in patent US8367360B2, “Method of screening for inhibitors of tau protein phosphororylation by tyrosine kinase c-Abl” (Proteome Sciences plc, priority 2004, dated 2013).

Tests used:
Test in all cases: cell-based or functional assay
[1] = biological target: V5 tagged human tau mutant Y394-only (human) (UniProt P10636)
[2] = biological target: V5 tagged human tau mutant Y18-only (human) (UniProt P10636)
[3] = biological target: V5 tagged human tau mutant Y197-only (human) (UniProt P10636)
[4] = biological target: V5 tagged human tau mutant Y29-only (human) (UniProt P10636)

tyrosine phosphorylation of immunoprecipitated tau (4G10 Western blot), CHO cells co-transfected with Syk (% of the level found with wild-type) [1]: 20 to 25
tyrosine phosphorylation of immunoprecipitated tau (4G10 Western blot), CHO cells co-transfected with Syk (% of the level found with wild-type) [2]: 20 to 25
tyrosine phosphorylation of immunoprecipitated tau (4G10 Western blot), CHO cells co-transfected with Syk (% of the level found with wild-type) [3]: 20 to 25
tyrosine phosphorylation of immunoprecipitated tau (4G10 Western blot), CHO cells co-transfected with Syk (% of the level found with wild-type) [4]: 20 to 25
Substance: Syk tyrosine kinase (expressed from Syk cDNA in CHO cells) (from UniProt P43405 1-635) (enzyme)
